These results are taken from PMC4529233, “In Silico Generation of Peptides by Replica Exchange Monte Carlo: Docking-Based Optimization of Maltose-Binding-Protein Ligands” (PLoS ONE, 2015).

Test [1] has as its target T1, MBP (Escherichia coli, UniProt P0AEX9).
T1 construct: made in house; host or cells: E. coli BL21(DE3)
The test can be described thus: Surface Plasmon Resonance, immobilized MBP, peptides as analytes. It counts as binding. The procedure: SPR was employed to evaluate the affinities of designed peptides towards the MBP protein. SPR experiments were carried out by immobilizing MBP on a CM5 chip with an immobilization level of 4900 RU, while peptides were employed as analytes.
The interactions between the protein and computationally optimized peptides were measured using the BIAcore 3000 (GE Healthcare Milano, Italy). MBP was immobilized at a concentration of 100 μg/mL in 10 mM acetate buffer pH 5 (flow rate 5 μL/min, time injection 7 min) on a CM5 Biacore sensor chip, using EDC/NHS chemistry following the manufacturer’s instructions. Residual reactive groups were deactivated by treatment with 1 M ethanolamine hydrochloride, pH 8.5. The reference channel was activated with EDC/NHS and deactivated with ethanolamine. The binding assays were carried out at 20 μL /min at 25°C, with 4.5 min contact-time. Peptides were diluted in the HBS running buffer (10 mM Hepes, 150 mM NaCl, 3 mM EDTA, pH 7.4). Analyte injections were performed at the indicated concentrations. The sensor surface was regenerated by using 1–3 washes of 10mM NaOH for 1 minute. The association phase (kon) was followed for 250s, whereas the dissociation phase (koff) was followed for 300 s. The instrument BIAevaluation analysis package (version 4.1, GE Healthcare, Milano, Italy) was used to subtract the signal of the reference channel. Conversely, an affinity steady state model was applied to fit the RUmax data versus peptides concentrations and fitting was performed with GraphPad Prism v4.00 using the one-site binding equation [53, 54].

Test [2] addresses T1, MBP. The test can be described thus: Tryptophan fluorescence quenching binding analysis. The settings on record: 1:1 model, MBP 14 μM, 25.0°C; read-out: KD (tryptophan fluorescence quenching at 333 nm). The procedure:
In this experiment the peptide concentration was twofold greater than KD, thus MBP protein was nearly saturated and consequently the signal decrease resulted from peptide displacement.
The data were acquired at 25.0°C, using an excitation wavelength of 298.0 nm and a fluorescence emission wavelength ranging from 300 to 400 nm. The acquisition parameters were set as follows: excitation and emission slits at 5 nm; 120 nm/min scan rate; 1.00 nm data interval averaging time at 0.500 s, PMT voltage at “high”. The fluorescence values recorded at 333 nm were extracted, and transformed to -Δfluorescence which was obtained by subtracting them to the emission fluorescence intensity of the ligand-free protein, and, then, plotted against the peptide concentration. […] Experiments were carried out in duplicates. A control assay was carried out employing as titrant the buffer to assess that the dilution effect was under 3%, not affecting the results.

[3] abbreviates: steady state, saturated signals, read-out: KD (SPR, fitting of RUmax values vs peptides concentrations).

For `C[C@H](NC(=O)[C@@H]1CCCN1C(=O)[C@@H](N)CO)C(=O)NCC(=O)NCC(=O)N[C@@H](CCC(N)=O)C(=O)N[C@@H](CC(=O)O)C(=O)N[C@@H](Cc1ccccc1)C(N)=O` [MBP-1], on MBP [1] (setting [3]), the Kd was found to be 4200 ± 1400 µM.
As for `C[C@H](N)C(=O)N1CCC[C@H]1C(=O)N[C@@H](CCCNC(=N)N)C(=O)NCC(=O)NCC(=O)N[C@@H](CC(N)=O)C(=O)N[C@H](C(=O)N[C@@H](CO)C(N)=O)[C@@H](C)O` [MBP-3], the Kd at MBP [1] (setting [3]) turned out to be 1500 ± 200 µM.
On the same count and under the same terms, then `CSCC[C@H](NC(=O)CNC(=O)CNC(=O)[C@H](CCCCN)NC(=O)[C@H](CCC(N)=O)NC(=O)[C@@H]1CCCN1)C(=O)N[C@@H](Cc1c[nH]c2ccccc12)C(=O)N[C@@H](CC(=O)O)C(N)=O` [MBP-6], with 1300 ± 500 µM.
Turning to `N=C(N)NCCC[C@H](NC(=O)[C@H](Cc1ccccc1)NC(=O)[C@H](Cc1ccc(O)cc1)NC(=O)[C@@H]1CCCN1C(=O)[C@H](Cc1ccccc1)NC(=O)[C@H](Cc1c[nH]cn1)NC(=O)[C@@H](N)Cc1ccc(O)cc1)C(=O)N[C@@H](Cc1ccccc1)C(N)=O` [MBP-9], the Kd at MBP [1] (immobilized MBP on CM5 chip, 25°C, HBS pH 7.4, read-out: KD (SPR determined)) is 72 ± 3 µM; at MBP [2], 65 ± 10 µM.
